Literature values as cited in US6479509B1, “Method of promoting smoking cessation” (priority 2000, dated 2002).

The chains behind the UniProt entries cited, without tags or fusion partners.
UniProt P31652, whole entry: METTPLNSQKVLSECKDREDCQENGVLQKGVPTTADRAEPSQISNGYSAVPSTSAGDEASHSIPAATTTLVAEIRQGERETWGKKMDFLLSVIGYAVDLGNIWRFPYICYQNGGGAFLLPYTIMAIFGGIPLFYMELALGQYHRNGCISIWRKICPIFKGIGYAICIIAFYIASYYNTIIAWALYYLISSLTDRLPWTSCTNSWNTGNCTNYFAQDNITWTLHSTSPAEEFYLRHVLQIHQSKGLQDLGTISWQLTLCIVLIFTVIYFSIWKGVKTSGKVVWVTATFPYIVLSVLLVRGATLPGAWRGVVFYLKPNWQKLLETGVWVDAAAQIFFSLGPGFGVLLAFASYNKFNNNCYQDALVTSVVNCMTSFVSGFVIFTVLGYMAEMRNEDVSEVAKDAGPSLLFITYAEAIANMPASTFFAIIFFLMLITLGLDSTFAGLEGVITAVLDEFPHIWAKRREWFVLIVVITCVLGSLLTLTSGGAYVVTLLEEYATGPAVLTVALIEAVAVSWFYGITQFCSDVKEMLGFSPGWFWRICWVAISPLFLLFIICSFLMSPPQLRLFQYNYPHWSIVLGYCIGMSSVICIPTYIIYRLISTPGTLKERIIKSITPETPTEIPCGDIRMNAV

Molecular target: T1, Serotonin transporter (Rattus norvegicus, UniProt P31652)
T1 construct: from tissue; host or cells: brain
Details: brain; read-out: Serotonin [3H]Paroxetine IC50; cited from earlier work

COC(=O)[C@H]1[C@@H](c2ccccc2)C[C@@H]2CC[C@H]1N2C [WIN 35,065-2, reference compound]
IC50: 1960 nM
